Assays:
Assay type in all cases: in vivo, human
JAK2V617F allele burden = assay: PROUD-PV/CONTINUATION-PV: JAK2V617F allele burden and molecular response (real-time PCR)
PV patients [1] = assay: PROUD-PV/CONTINUATION-PV: combined analysis of hematologic and molecular parameters
Experimental: In the ongoing extension phase (CONTINUATION-PV or CONTI-PV), patients in the HU arm were permitted to switch to best available treatment. Efficacy assessments included a longitudinal analysis of complete hematological response and complete molecular response, defined by modified ELN criteria. Discontinued patients were considered non-responders. Data were analyzed for patients reaching 48 months and 60 months of treatment.
A further analysis of combined hematologic and molecular parameters was performed, these being known to influence the risk of thrombosis and of progression in PV.

PV patients [2] = assay: PROUD-PV/CONTINUATION-PV: safety, thromboembolic events, disease progression
[3] = AEs of special interest to interferon therapy, 4th year data
[4] = entire treatment period (5-year analysis)

ropeginterferon alpha-2b
Molecular response Responder/N (JAK2V617F allele burden; month 36 (LOCF)): 62/94
Patients with JAK2V617F allele burden below the threshold of 1% (CMR) (JAK2V617F allele burden; month 48): 13
Patients with allele burden below 1% who also had a CHR (JAK2V617F allele burden; month 48): 11
JAK2V617F allele burden, mean (JAK2V617F allele burden; month 48 (LOCF)): 19.3%
JAK2V617F allele burden, median (JAK2V617F allele burden; month 48 (LOCF)): 9.2%
Molecular response Responder % (JAK2V617F allele burden; month 48 (LOCF)): 67.0%
Molecular response Responder/N (JAK2V617F allele burden; month 48 (LOCF)): 63/94
Patients with allele burden below 0.01% (JAK2V617F allele burden; month 60): 5
Patients with allele burden below 1% (JAK2V617F allele burden; month 60): 10
Patients with allele burden below 1% or below 0.01% who also had CHR (JAK2V617F allele burden; month 60): 14
JAK2V617F allele burden, mean (JAK2V617F allele burden; month 60 (LOCF)): 18.9%
JAK2V617F allele burden, median (JAK2V617F allele burden; month 60 (LOCF)): 8.5%
Molecular response Responder % (JAK2V617F allele burden; month 60 (LOCF)): 69.1%
Molecular response Responder/N (JAK2V617F allele burden; month 60 (LOCF)): 65/94
Median JAK2V617F allele burden (JAK2V617F allele burden; over 4 years): 9.8%
Median JAK2V617F allele burden (JAK2V617F allele burden; over 5 years of treatment): 7.3%
Rate of patients with allele burden >50% (FIG. 3) (JAK2V617F allele burden; per year during the study period): declined steadily
Combined hematocrit control and molecular response RR (PV patients [1]; at the 5 year visit): 3.52
Patients with well-controlled hematocrit (<45%) without phlebotomy and a molecular response (PV patients [1]; at the 5 year visit): 58.5%
Combined analysis RR [95% CI] (Ropeg/Control) (PV patients [1]; month 12 (EOT in PR)): 0.73 (0.50-1.06)
Combined hematologic and molecular parameters Responder % (PV patients [1]; month 12 (EOT in PR)): 33.0%
Combined hematologic and molecular parameters Responder/N (PV patients [1]; month 12 (EOT in PR)): 31/94
Combined analysis RR [95% CI] (Ropeg/Control) (PV patients [1]; month 24 (LOCF)): 2.26 (1.46-3.50)
Combined hematologic and molecular parameters Responder % (PV patients [1]; month 24 (LOCF)): 55.3%
Combined hematologic and molecular parameters Responder/N (PV patients [1]; month 24 (LOCF)): 52/94
Combined analysis RR [95% CI] (Ropeg/Control) (PV patients [1]; month 36 (LOCF)): 2.17 (1.43-3.29)
Combined hematologic and molecular parameters Responder % (PV patients [1]; month 36 (LOCF)): 57.5%
Combined hematologic and molecular parameters Responder/N (PV patients [1]; month 36 (LOCF)): 54/94
Combined analysis RR [95% CI] (Ropeg/Control) (PV patients [1]; month 48 (LOCF)): 2.79 (1.74-4.46)
Combined hematologic and molecular parameters Responder % (PV patients [1]; month 48 (LOCF)): 57.5%
Combined hematologic and molecular parameters Responder/N (PV patients [1]; month 48 (LOCF)): 54/94
Combined analysis RR [95% CI] (Ropeg/Control) (PV patients [1]; month 60 (LOCF)): 3.26 (1.97-5.42)
Combined hematologic and molecular parameters Responder % (PV patients [1]; month 60 (LOCF)): 58.5%
Combined hematologic and molecular parameters Responder/N (PV patients [1]; month 60 (LOCF)): 55/94
Rate of major thromboembolic adverse events, % of patients (PV patients [2]; 2nd year): 0.0%
Rate of major thromboembolic adverse events, % of patients (PV patients [2]; 3rd year): 0.0%
Disease-related transformation to myelofibrosis (PV patients [2]; 4-year analysis): One case
Rate of major thromboembolic adverse events, % of patients (PV patients [2]; 4th year): 1.1%
Endocrine disorders, patients with treatment-related event, total for SOC (PV patients [2]; [3]): 5
Endocrine disorders, total for SOC, % (PV patients [2]; [3]): 3.9%
Immune system disorders, total for SOC, % (PV patients [2]; [3]): 0.8%
Musculoskeletal/connective tissue disorders, patients with treatment-related event, total for SOC (PV patients [2]; [3]): 2
Musculoskeletal/connective tissue disorders, total for SOC, % (PV patients [2]; [3]): 1.6%
Psychiatric disorders, total for SOC, % (PV patients [2]; [3]): 0.8%
Skin/subcutaneous tissue disorders, patients with treatment-related event, total for SOC (PV patients [2]; [3]): 2
Skin/subcutaneous tissue disorders, total for SOC, % (PV patients [2]; [3]): 1.6%
Patients with adverse events (AEs) (PV patients [2]; entire 4-year study period): 89.8%
Patients with serious adverse events (SAEs) (PV patients [2]; entire 4-year study period): 20.5%
Patients with treatment related SAEs (PV patients [2]; entire 4-year study period): 2.4%
Patients with treatment-related AEs (PV patients [2]; entire 4-year study period): 75.6%
Patients with treatment-related AEs ≥ grade 3 (PV patients [2]; entire 4-year study period): 15.0%
Major thromboembolic events, number (PV patients [2]; entire 5 year treatment period): 6
Major thromboembolic adverse events per patient-year (PV patients [2]; entire treatment period): 1.2 %-patient year
Patients with a major thromboembolic adverse event (PV patients [2]; entire treatment period): 4.2%
Rate of grade ≥3 drug-related adverse events (PV patients [2]; entire treatment period): 16.5%
Adverse drug reactions (ADRs), % of patients (PV patients [2]; [4]): 78.7%
Adverse drug reactions (ADRs), patients (PV patients [2]; [4]): 100
Adverse events (AEs), % of patients (PV patients [2]; [4]): 91.3%
Adverse events (AEs), patients (PV patients [2]; [4]): 116
Grade 3, 4 or 5 ADRs, % of patients (PV patients [2]; [4]): 16.5%
Grade 3, 4 or 5 ADRs, patients (PV patients [2]; [4]): 21
Serious adverse events (SAEs), % of patients (PV patients [2]; [4]): 23.6%
Serious adverse events (SAEs), patients (PV patients [2]; [4]): 30
Treatment-related SAEs, % of patients (PV patients [2]; [4]): 3.1%
Treatment-related SAEs, patients (PV patients [2]; [4]): 4
Patients reporting grade ≥3 treatment-related adverse events (PV patients [2]; fifth year): Three patients
Patients reporting grade ≥3 treatment-related adverse events, % (PV patients [2]; fifth year): 3.8%
Patients who withdrew due to drug-related toxicity (PV patients [2]; fifth year): one patient
Patients with treatment-related adverse events (PV patients [2]; fifth year): 25.6%
Adverse drug reactions (ADRs), % of patients (PV patients [2]; fifth year of treatment): 25.6%
Adverse drug reactions (ADRs), patients (PV patients [2]; fifth year of treatment): 20
Adverse events (AEs), % of patients (PV patients [2]; fifth year of treatment): 57.7%
Grade 3, 4 or 5 ADRs, % of patients (PV patients [2]; fifth year of treatment): 3.8%
Grade 3, 4 or 5 ADRs, patients (PV patients [2]; fifth year of treatment): 3
Serious adverse events (SAEs), % of patients (PV patients [2]; fifth year of treatment): 10.3%
Serious adverse events (SAEs), patients (PV patients [2]; fifth year of treatment): 8
Treatment-related SAEs, % of patients (PV patients [2]; fifth year of treatment): 1.3%
Additional cases of hypothyroidism compared to the 4th year data (PV patients [2]; fifth year, AEs of special interest to interferon therapy): only one additional case
Rate of patients with treatment-related adverse events (PV patients [2]; in the 4th year): 28.7%
